Literature values in US12281072B2, “Multi-aziridine compound” (priority 2020, dated 2025).

Conditions: background statement on state-of-the-art aziridines

## pentaerythritol tris[3-(1-aziridinyl)propionate [XAMA-7]
  genotoxic profile: unfavourable genotoxic profile
